Chains of the proteins cited; added tags and fusions are not shown. Residues count along the entry.
UniProt P43220, 24-463, species assumed: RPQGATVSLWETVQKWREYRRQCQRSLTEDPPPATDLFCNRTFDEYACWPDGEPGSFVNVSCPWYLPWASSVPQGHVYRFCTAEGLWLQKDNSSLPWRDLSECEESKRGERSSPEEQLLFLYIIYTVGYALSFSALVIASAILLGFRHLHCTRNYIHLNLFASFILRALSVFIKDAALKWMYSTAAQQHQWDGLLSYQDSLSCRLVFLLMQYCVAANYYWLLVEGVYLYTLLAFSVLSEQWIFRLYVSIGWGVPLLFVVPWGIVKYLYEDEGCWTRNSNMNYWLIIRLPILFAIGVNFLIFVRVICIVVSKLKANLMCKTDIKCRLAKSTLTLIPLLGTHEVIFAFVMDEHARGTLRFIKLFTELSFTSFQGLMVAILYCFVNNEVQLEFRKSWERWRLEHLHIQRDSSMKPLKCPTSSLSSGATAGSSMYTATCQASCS

In US20230071840A1, “HETEROCYCLIC GLP-1 AGONISTS” (Gasherbrum Bio, Inc., priority 2020, published 2023):

Each compound was assayed against GLP-1 Receptor (Homo sapiens, UniProt P43220) (assay: GLP-1R agonist cAMP stimulation assay (HEK293/GLP1R/CRE-LUC cells, cAMP dynamic 2 kit)). Details: HEK293/CRE-Luc cell line stably expressing the GLP-1 Receptor; 30 min incubation at 37° C.; read-out: GLP1R cAMP Stimulation DR: EC50.
Type: cell-based
Procedure: Activation of GLP-1 receptor is known to stimulate cyclic AMP (cAMP) production in cells which indicates primary coupling to the Gas subunit of the G protein heterotrimeric complex.
To optimize functional activity directed toward Gas coupling, a HEK293/CRE-Luc cell line developed by HDB stably expressing the GLP-1 Receptor was used. […] Seal the plate and incubate at 37° C. with 5% CO2 for 30 min.
After incubation the cAMP assay signal was generated using cAMP dynamic 2 Kit (Cisbio). 5 μL cAMP-d2 working solution was added to each well, followed with 5 μL Anti-cAMP antibody-cryptate working solution added to each well using ThermoFisher Multidrop Combi. Incubate at room temperature for 1 hour protected from light.
% Activity=[…]×(mean RLU of test sample−mean RLU of vehicle control)/(mean RLU of MAX control−mean RLU of vehicle control))

EC50 | SMILES
201 nM | O=C(O)c1ccc2nc(CN3CCC(Oc4ccccc4Cc4ccc(Cl)cc4F)CC3)n(C[C@@H]3CCO3)c2n1 [Compound 107a, (S)-2-((4-(2-(4-Chloro-2-fluorobenzyl)phenoxy)piperidin-1-yl)methyl)-3-(oxetan-2-ylmethyl)-3H-imidazo[4,5-b]pyridine-5-carboxylic acid]
497 nM | O=C(O)c1ccc2nc(CC3CCN(Cc4nc(Cc5ccc(Cl)cc5F)cs4)CC3)n(C[C@@H]3CCO3)c2n1 [Compound 105a, (S)-2-((1-((4-(4-Chloro-2-fluorobenzyl)thiazol-2-yl)methyl)piperidin-4-yl)methyl)-3-(oxetan-2-ylmethyl)-3H-imidazo[4,5-b]pyridine-5-carboxylic acid]
179 nM | Cc1cn(Cc2ccc(Cl)cc2F)nc1C(=O)N1CCC(Cc2nc3ccc(C(=O)O)nc3n2C[C@@H]2CCO2)CC1 [Compound 102a, (S)-2-((1-(1-(4-chloro-2-fluorobenzyl)-4-methyl-1H-pyrazole-3-carbonyl)piperidin-4-yl)methyl)-3-(oxetan-2-ylmethyl)-3H-imidazo[4,5-b]pyridine-5-carboxylic acid]
290 nM | O=C(O)c1ccc2nc(CC3CCN(C(=O)c4ccn(Cc5ccc(Cl)cc5F)n4)CC3)n(C[C@@H]3CCO3)c2n1 [Compound 101a, (S)-2-((1-(1-(4-chloro-2-fluorobenzyl)-1H-pyrazole-3-carbonyl)piperidin-4-yl)methyl)-3-(oxetan-2-ylmethyl)-3H-imidazo[4,5-b]pyridine-5-carboxylic acid]
19.6 nM | O=C(O)c1ccc2nc(CC3CCN(C(=O)c4nc(Cc5ccc(Cl)cc5F)cs4)CC3)n(C[C@@H]3CCO3)c2n1 [Compound 103a, (S)-2-((1-(5-(4-chloro-2-fluorobenzyl)thiazole-2-carbonyl)piperidin-4-yl)methyl)-3-(oxetan-2-ylmethyl)-3H-imidazo[4,5-b]pyridine-5-carboxylic acid]
0.051 nM | O=C(O)c1ccc2nc(CN3CCC(Oc4cccc(Cc5ccc(Cl)cc5F)n4)CC3)n(C[C@@H]3CCO3)c2n1 [Compound 109a, (S)-2-((4-((6-(4-Chloro-2-fluorobenzyl)pyridin-2-yl)oxy)piperidin-1-yl)methyl)-3-(oxetan-2-ylmethyl)-3H-imidazo[4,5-b]pyridine-5-carboxylic acid]

SMILES | EC50
O=C(O)c1ccc2nc(CN3CCC(Oc4cccc(Cc5ccccc5)n4)CC3)n(C[C@@H]3CCO3)c2n1 [Compound 123a, 2-({4-[(6-benzylpyridin-2-yl)oxy]piperidin-1-yl}methyl)-3-{[(2S)-oxetan-2-yl]methyl}-3H-imidazo[4,5-b]pyridine-5-carboxylic acid] | 1.7 nM
O=C(O)c1ccc2nc(CC3CCN(C(=O)c4ncc(Cc5ccc(Cl)cc5F)s4)CC3)n(C[C@@H]3CCO3)c2n1 [Compound 104a, (S)-2-((1-(5-(4-Chloro-2-fluorobenzyl)thiazole-2-carbonyl)piperidin-4-yl)methyl)-3-(oxetan-2-ylmethyl)-3H-imidazo[4,5-b]pyridine-5-carboxylic acid] | 725 nM
O=C(O)c1ccc2nc(CN3CCC(Oc4cccc(Oc5ccc(Cl)cc5F)n4)CC3)n(C[C@@H]3CCO3)c2n1 [Compound 118a, 2-[(4-{[6-(4-chloro-2-fluorophenoxy)pyridin-2-yl]oxy}piperidin-1-yl)methyl]-3-{[(2S)-oxetan-2-yl]methyl}-3H-imidazo[4,5-b]pyridine-5-carboxylic acid] | 30 nM
